From US20260124315A1, “CATALYST AUGMENTED TARGET SPECIFIC POLYPEPTIDE” (TECHNISCHE UNIVERSITAT BERLIN, priority 2022, published 2026)

Columns and labels:
[1] = target: T1, Her2/ERBB2 Protein, Human, Recombinant (ECD), Biotinylated (Homo sapiens, UniProt P04626); test: Fluorogenic catalysis on HER2-biotinylated streptavidin beads; settings: NB—Pd bound to HER2-SAV-beads, washed, 24 h
T1 construct: Her2/ERBB2 Protein, Human, Recombinant (ECD), Biotinylated; purchased SinoBiological 10004-HCCH—B
Protocol: An increment of the fluorescence signal was observed by the resorufin release.
On HER2-biotinylated streptavidin beads. 6 μg of Her2/ERBB2 Protein, Human, Recombinant (ECD), Biotinylated (SinoBiological, 10004-HCCH—B) were dissolved in 100 μL PBS. […] The resin suspension was shaken at 700 rpm and 37° C. in a Thermomixer for 1 h. Biotin (200 μM) in PBS (100 μL) was added and incubated for 30 min at 37° C., 700 rpm in the Thermomixer to block free Streptavidin. Resin was washed twice with PBS and NB—Pd (1.6 nmol, 100 μL) was added. After incubation at 700 rpm and 37° C. in a Thermomixer for 1 h, resin was washed twice with PBS and ProRes (100 μM) in PBS (100 μL) was added. Resin was incubated at 1200 rpm and 37° C. in a Thermomixer for 24 h. Fluorescence was measured in a FLUOstar Omega multilabel reader (Ex/Em: 540/590 nm). Sensor ProRes alone (100 μM), or in the presence of Streptavidin Sepharose resin pre-incubated with NB—Pd, were used as negative controls and fluorescent dye Resorufin (100 μM) was used as a reference control. Reactions were done in triplicates.
Streptavidin beads (SAV) were treated with the biotinylated HER2 protein (HER2-SAV-beads). Then, HER2-SAV-beads were incubated with the NB—Pd for 1 h at 37° C. in a Thermomixer. After washing with PBS, the sensor (ProRes) was added and the reaction was monitored after 24 h using a multilabel fluorescence reader.

HER2 = target: T2, HER2 (Homo sapiens, UniProt P04626); settings: published Kd of HER2 nanobody; cited from earlier work
T2 construct: endogenous in cells; host or cells: SK-BR-3

B1: NB—Pd: HER2 nanobody-HRGDH fusion complexed with Pd after incubation with Pd(OAc)2 at molar ratio 1:1 (conjugate)
VHH: QVQLQESGGGSVQAGGSLKLTCAASGYIFNSCGMGWYRQSPGRERELVSRISGDGDTWHKESVKGRFTISQDNVKKTLYLQMNSLKPEDTAVYFCAVCYNLETYWGQGTQVTVSSGGGGSHRGDHENLYFQSHHHHHH
[1]
  fluorescence after catalysis of ProRes on HER2-SAV-beads: Increased fluorescence

B2: NB: HER2 nanobody fused via GGGGS spacer to the peptide HRGDH; the Kd is the published value of HER2-NB (protein)
VHH: B1 VHH
HER2
  Kd: 4.7 nM
